Measurements taken from article PMC5681660 (2017).

Biological target: T1, human NTCP (Homo sapiens, UniProt Q14973)
T1 sequence (Q14973 1-349): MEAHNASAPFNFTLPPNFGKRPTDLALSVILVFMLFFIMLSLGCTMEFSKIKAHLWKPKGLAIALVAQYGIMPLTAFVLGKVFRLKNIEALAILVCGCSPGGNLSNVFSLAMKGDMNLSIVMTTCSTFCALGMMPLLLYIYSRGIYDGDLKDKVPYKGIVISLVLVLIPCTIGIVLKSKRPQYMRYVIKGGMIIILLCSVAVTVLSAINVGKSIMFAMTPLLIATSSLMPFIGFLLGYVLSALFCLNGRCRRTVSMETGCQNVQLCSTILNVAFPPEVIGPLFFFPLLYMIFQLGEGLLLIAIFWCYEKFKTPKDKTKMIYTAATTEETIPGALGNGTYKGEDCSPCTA
Test: Screening taurocholate uptake assay (96-well, [14C]taurocholate, 10 µM drug)
Conditions: Prestwick library screen

Cl.O.O.O=C1CC[C@@]2(O)[C@H]3Cc4ccc(O)c5c4[C@@]2(CCN3CC2CC2)[C@H]1O5 [Naltrexone hydrochloride dihydrate]
B-score functional assay: -0.138
